What was measured:
[1] = Cytotoxicity against hamster BHK-21 cells assessed as reduction in cell viability incubated for 24 hrs by Celltiter assay; assay type: toxicity, cell-based, Mesocricetus auratus
Chlorocebus aethiops = organism: Chlorocebus aethiops; test: Cytotoxicity against African green monkey COS-7 cells assessed as reduction in cell viability incubated for 24 hrs by Celltiter assay

**Q.** Which results are given for `COc1ccc(-c2cc(=O)c3c(O)cc(O)c(-c4cc(-c5cc(=O)c6c(O)cc(O)cc6o5)ccc4O)c3o2)cc1` [PODOCARPUSFLAVONE A]?
**A.** IC50 at 24 h [1]: 750 nM; IC50 at 24 h (Chlorocebus aethiops): 750 nM
